Laboratory results as given in patent publication US7053160B1, “Metallocene monohalogenides” (Basell Polyolefine GmbH, priority 1998, dated 2006).

Experiment: Solubility comparison in toluene at room temperature
Format: physicochemical
Conditions: about 50 mg of solid dissolved

solubility: about 18 mmol/l
Compound: CC1=Cc2c(ccc3ccccc23)[C]12[Si](C)(C)[C]1(C(C)=Cc3c1ccc1ccccc31)[Zr]2([Cl])[O]c1cc(C)ccc1C(C)C (stereo not shown) [compound 3, Dimethylsilanediylbis(2-methyl-4,5-benzoindenyl)zirconium monochloride mono(2-isopropyl-5-methylphenoxide)]
